Molecular target: recombinant extracellular part of PSMA (Homo sapiens, UniProt Q04609)
Experiment: Competition ELISA: iBody 1 binding to PSMA versus PSMA inhibitors
Details: iBody 1 (5 nM per legend); inhibitor pre-incubated 30 min, then iBody 60 min at RT; representative of >3 experiments, n = 3

Amino acid sequences for entries named in this document (tags omitted). Residues count along the entry.
UniProt Q04609, 44-750 limits assumed: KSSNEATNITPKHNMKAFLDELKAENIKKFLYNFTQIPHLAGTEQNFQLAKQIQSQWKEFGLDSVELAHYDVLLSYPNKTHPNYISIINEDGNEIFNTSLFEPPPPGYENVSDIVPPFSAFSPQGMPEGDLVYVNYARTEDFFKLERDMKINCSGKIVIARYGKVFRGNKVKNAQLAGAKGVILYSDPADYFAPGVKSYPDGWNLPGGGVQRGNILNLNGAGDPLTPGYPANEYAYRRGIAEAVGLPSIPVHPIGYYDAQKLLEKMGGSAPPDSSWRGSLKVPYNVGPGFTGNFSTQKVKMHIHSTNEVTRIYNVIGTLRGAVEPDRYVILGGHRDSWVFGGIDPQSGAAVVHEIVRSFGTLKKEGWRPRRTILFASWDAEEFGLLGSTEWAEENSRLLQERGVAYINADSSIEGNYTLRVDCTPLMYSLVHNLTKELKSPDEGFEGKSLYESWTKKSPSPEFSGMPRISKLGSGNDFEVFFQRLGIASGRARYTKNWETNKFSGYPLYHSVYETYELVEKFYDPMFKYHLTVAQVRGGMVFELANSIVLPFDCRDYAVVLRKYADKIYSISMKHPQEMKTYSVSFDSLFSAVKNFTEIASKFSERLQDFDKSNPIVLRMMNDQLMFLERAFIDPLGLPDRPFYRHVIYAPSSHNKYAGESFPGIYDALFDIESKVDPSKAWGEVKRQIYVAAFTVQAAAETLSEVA

Structure (SMILES): NCCOCCOCCOCCOCCOCCC(=O)N(CCCCC(NC(=O)NC(CCC(=O)O)C(=O)O)C(=O)O)Cc1ccc(Br)cc1 (stereo not shown)
- competition with binding of iBody 1 to PSMA on ELISA (in words): outcompeted

— paper PMC8600089, “The development of a high-affinity conformation-sensitive antibody mimetic using a biocompatible copolymer carrier (iBody)” (The Journal of Biological Chemistry, 2021)
